## Curated experimental data: melting point values

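OPERA's authors assembled the values from existing databases and did not measure them anew. A listed value is a point estimate from one report or more. Method and conditions are not stated for these values. A value may pool stereoisomers or salt forms, and the file does not say which form was measured. Some entries may be limits or estimates that an upstream database listed as plain numbers.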

The melting point is given in degrees Celsius.

The entry for Nc1c(I)cc(I)cc1I lists MP 188 °C.
The entry for O=C(O)CCCSc1nc2ccccc2[nH]1 lists MP 121 °C.
The entry for ClC(Cl)(Cl)C(c1ccccc1)c1ccccc1 lists MP 65 °C.
The entry for CCOC(=O)c1ccc([N+](=O)[O-])o1 lists MP 99.5 °C.
The entry for CCCCCCCCCCCCCCCC(=O)Nc1cc(Cl)c(CC)c(Cl)c1O lists MP 78 °C.
The entry for FC(F)CCCCC(F)(F)COP1(OCC(F)(F)C(F)(F)C(F)(F)C(F)(F)C(F)(F)C(F)F)=NP(OCC(F)(F)C(F)(F)C(F)(F)C(F)(F)C(F)(F)C(F)F)(OCC(F)(F)C(F)(F)C(F)(F)C(F)(F)C(F)(F)C(F)F)=NP(OCC(F)(F)C(F)(F)C(F)(F)C(F)(F)C(F)(F)C(F)F)(OCC(F)(F)C(F)(F)C(F)(F)C(F)(F)C(F)(F)C(F)F)=N1 (configuration not stated) lists MP 30 °C.
The entry for CCCCCCCCCCCCSCc1cc(C)c(O)c(CSCCCCCCCCCCCC)c1 lists MP 28 °C.
The entry for CC[C@H]1NC(=O)[C@@H](NC(=O)c2ncccc2O)[C@@H](C)OC(=O)[C@H](c2ccccc2)NC(=O)[C@@H]2CC(=O)[C@H](CS[C@@H]3CN4CCC3CC4)CN2C(=O)[C@H](Cc2ccc(N(C)C)cc2)N(C)C(=O)[C@H]2CCCN2C1=O lists MP 200 °C.
The entry for CC(=O)[O-].COc1ccc2c(c1)=[O+]/C(=C1/N(C)c3ccc(S(C)(=O)=O)cc3N1C)C=2 lists MP 157 °C.
The entry for CC(C)Cc1nnc(N)s1 lists MP 240 °C.
The entry for Cc1cn2c(C=O)c(C)nc2s1 lists MP 154 °C.
The entry for CN1N=C(C(=O)O)CCC1=O lists MP 157 °C.
The entry for Cc1cc(Cl)n2ncnc2n1 lists MP 221 °C.
The entry for O=C1CCc2cc(O)ccc2N1 lists MP 240 °C.
The entry for O=C(O)C1CC(=O)N(c2ccc(Br)cc2)C1 (configuration not stated) lists MP 174 °C.
The entry for O=C(O)c1cc(Cl)cc(Cl)c1I lists MP 174 °C.
The entry for O=C(CCl)NCCCc1ccccc1 lists MP 77.5 °C.
The entry for O=C1CCc2cc(S(=O)(=O)Cl)ccc2N1 lists MP 206 °C.
The entry for COc1cccc(Nc2n[nH]c(=S)s2)c1 lists MP 209 °C.
The entry for O=C(c1cccnc1Cl)N1CCCC1 lists MP 78 °C.
The entry for COc1ccc(-c2noc(CCCC(=O)O)n2)cc1 lists MP 110 °C.
The entry for CC1=Nc2ccc3ccccc3c2C1(C)C lists MP 116.5 °C.
The entry for Cc1c(C=O)c2ccccn2c1C=O lists MP 215 °C.
The entry for N#CCN1CCSCC1 lists MP 52 °C.
The entry for NC(=S)CC(=O)NCc1ccccc1 lists MP 114 °C.
The entry for O=C(O)c1ccc(C2SCCS2)cc1 lists MP 167 °C.
The entry for CON(C)S(=O)(=O)c1ccc(N)cc1 lists MP 149 °C.
The entry for Nc1ccc(N2CCCC2=O)cc1 lists MP 126 °C.
The entry for Nc1ccccc1NC(=O)c1ccccc1 lists MP 150 °C.
The entry for CCNc1ccc(C(=O)OCC)cc1[N+](=O)[O-] lists MP 93 °C.

The 4 lowest values of MP among the entries above:

| SMILES | MP (°C) |
|---|---|
| CCCCCCCCCCCCSCc1cc(C)c(O)c(CSCCCCCCCCCCCC)c1 | 28 |
| FC(F)CCCCC(F)(F)COP1(OCC(F)(F)C(F)(F)C(F)(F)C(F)(F)C(F)(F)C(F)F)=NP(OCC(F)(F)C(F)(F)C(F)(F)C(F)(F)C(F)(F)C(F)F)(OCC(F)(F)C(F)(F)C(F)(F)C(F)(F)C(F)(F)C(F)F)=NP(OCC(F)(F)C(F)(F)C(F)(F)C(F)(F)C(F)(F)C(F)F)(OCC(F)(F)C(F)(F)C(F)(F)C(F)(F)C(F)(F)C(F)F)=N1 (configuration not stated) | 30 |
| N#CCN1CCSCC1 | 52 |
| ClC(Cl)(Cl)C(c1ccccc1)c1ccccc1 | 65 |

From the experimental data distributed with OPERA 2.9.